Reference: PubChem BioAssay AID504692 (The Scripps Research Institute Molecular Screening Center, 2011)
This is a selection; strong and weak results do not stand in their true shares. The source made the active and inactive calls. Cut-off read from the data, not from the text of the source: active = activation mostly above about 9.5% (no sharp cut-off); inactive = mostly below about 7.6%.

By UniProt entry, the sequences of proteins in these tests, tags left out.
UniProt P47898, whole entry, looked up: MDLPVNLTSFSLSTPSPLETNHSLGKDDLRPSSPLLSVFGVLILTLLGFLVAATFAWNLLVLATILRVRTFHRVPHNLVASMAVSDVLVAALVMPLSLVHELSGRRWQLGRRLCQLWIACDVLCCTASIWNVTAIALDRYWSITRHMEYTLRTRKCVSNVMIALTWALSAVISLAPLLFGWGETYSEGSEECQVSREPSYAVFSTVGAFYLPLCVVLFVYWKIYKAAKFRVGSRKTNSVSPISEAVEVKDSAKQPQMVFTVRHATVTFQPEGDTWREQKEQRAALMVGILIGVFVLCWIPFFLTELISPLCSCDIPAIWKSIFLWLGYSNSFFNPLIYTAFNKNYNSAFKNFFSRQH

Target: 5-hydroxytryptamine receptor 5A (Homo sapiens) (UniProt P47898)
Assay: activation of human 5-HT5A receptor – cell-based, luminescence, full-deck HTS, counter-screen for OPRM1-OPRD1 heterodimer agonist project, primary screen (AID 504692);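 note: 0% = cells with vehicle only and 100% = reference agonist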
Details: HTR5A agonist assay, at 9.3 µM, hits give high values

Row | SMILES | activation
1 | O=C(Cn1cnc2ccccc21)N/N=C/C(Br)=C/c1ccccc1 | inactive: 2.02%
2 | Cn1c(=O)c2c(ncn2CC(=O)N/N=C/C(Cl)=C/c2ccccc2)n(C)c1=O | inactive: -1.61%
3 | CC(NC(=O)CCCCCNC(=O)N1CCn2c1nc1ccccc12)c1ccccc1 (stereo not given) | inactive: -1.7%
4 | COC(=O)C1(C)COP(=O)(NCc2ccccc2)OC1 (stereo not given) | inactive: -1.6%
5 | Cc1ccc2c(c1)C1CN(C)CCC1N2C(=O)COc1ccc(N(C)S(=O)(=O)c2cccs2)cc1 (stereo not given) | inactive: 0.4%
6 | O=C(CCCCCNC(=O)N1CCn2c1nc1ccccc12)N[C@H](C(=O)O)c1ccccc1 | inactive: 6.94%
7 | COC(=O)c1ccccc1NC(=O)Cn1c(-c2nonc2N)nc2ccccc21 | inactive: 3.69%
8 | CC(C)(C)NC(=O)Cn1c(SCC(=O)Nc2nccs2)nc2ccccc21 | inactive: 0.25%
9 | Cc1ccccc1CN(C)C(=O)COC(=O)C(O)(c1ccccc1)c1ccccc1 | inactive: 5.36%
10 | Cc1ccccc1Oc1ccc2c(c1)[C@@H]1C[C@H](N(C)C(=O)Nc3cc(Cl)cc(Cl)c3)[C@H]([C@H](C)O)C(=O)N1CC2 | inactive: 6.78%
11 | CCOc1ccc(S(=O)(=O)N(C)c2ccc(OCC(=O)N3c4ccc(C)cc4C4CN(C)CCC43)cc2)cc1 (stereo not given) | inactive: 1.57%
12 | Cc1ccc2c(c1)C1CN(C)CCC1N2C(=O)Nc1cccc(Cl)c1 (stereo not given) | inactive: -1.69%
13 | CN(C)CCn1c(N)nc2ccccc21 | inactive: 6.38%
14 | CN(C)C(=O)CSc1nc2ccccc2n1CC(=O)N1CCN(c2ccccc2)CC1 | inactive: -0.18%
15 | Cc1ccc2c(c1)C1CN(C)CCC1N2Sc1ccccc1[N+](=O)[O-] (stereo not given) | inactive: -0.93%
16 | C[C@H]1OP(=O)(Oc2ccccc2)C[C@@H]2O[C@@H]21 (stereo not given in full) | inactive: -1.55%
17 | CCC(=O)Nc1nc2ccccc2n1CCN(C)C | inactive: -0.66%
18 | C[C@@H]1C=CCP(=O)(Oc2ccccc2)O1 (stereo not given in full) | inactive: -1.65%
19 | O=C(CCNC(=O)N1CCn2c1nc1ccccc12)NCc1ccccc1Cl | inactive: -5%
20 | C[C@H](O)[C@@H]1C(=O)N2CCc3ccc(-c4ccccc4)cc3[C@@H]2C[C@@H]1N(C)C(=O)c1ccc(C#N)cc1 | inactive: 0.92%
21 | O=C(C1COc2ccccc2O1)N1CCn2c(nc3ccccc32)C1 (stereo not given) | inactive: 1.32%
22 | O=C(Cn1cnc2ccccc21)Nc1ccc(C(=O)O)cc1 | inactive: -5.23%
23 | CC(C)C[C@H](NC(=O)N1CCn2c1nc1ccccc12)C(=O)NCc1ccccc1 | inactive: 5.27%
24 | COc1ccccc1OCC(O)Cn1c(=N)n(CCN2CCCCC2)c2ccccc21 (stereo not given) | inactive: 1.71%
25 | Fc1ccc2c(c1)nnn2C1CCN(Cc2nnnn2CCc2ccccc2)CC1 | inactive: -0.39%
26 | COCC(=O)N(C)[C@H]1C[C@H]2c3cc(Oc4ccccc4C)ccc3CCN2C(=O)[C@H]1[C@H](C)O | inactive: -0.25%
27 | CC(C)[C@H](NC(=O)N1CCn2c1nc1ccccc12)C(=O)NCc1ccc(F)cc1 | inactive: -1.31%
28 | COCCN1CCn2c(nc3cc(NC(=O)Cn4nc(C)c5ccccc5c4=O)ccc32)C1 | inactive: -2.34%

Row | SMILES | activation
29 | COc1ccc(CCNC(=O)[C@H](C)NC(=O)N2CCn3c2nc2ccccc23)cc1OC | inactive: -1.89%
30 | CC(=O)Nc1ccc([As](=O)(O)O)c(O)c1 | inactive: -0.82%
31 | CC1=NNC(=O)C1CCC(=O)N/N=C/C=C/c1ccccc1 (stereo not given) | inactive: 0.87%
32 | CSCC[C@H](NC(=O)N1CCn2c1nc1ccccc12)C(=O)NC1CCCCC1 | inactive: -0.11%
33 | O=S(=O)(c1ccc(F)cc1)N1CCn2c(nc3ccccc32)C1 | inactive: -3.32%
34 | CCC(C(=O)NC1CCCC1)n1c(SCc2cccc(C)c2)nc2ccncc21 (stereo not given) | inactive: 5.98%
35 | CCOC(=O)c1ccc(NC(=O)C2CC(=O)Nc3nc4ccccc4n32)cc1 (stereo not given) | inactive: -0.98%
36 | COc1ccc2c(c1)C1(Nc3ccccc3-c3nc4ccccc4n31)C(=O)N2 (stereo not given) | inactive: -1.74%
37 | Cn1c(=O)c2c(ncn2CC(=O)Nc2cc(S(=O)(=O)N3CCCCC3)ccc2Cl)n(C)c1=O | inactive: 4.08%
38 | CN1C(=O)CC(n2c(CO)nc3ccccc32)C1=O (stereo not given) | inactive: 2.84%
39 | Cc1cc(NC(=O)CSc2nc3ccccc3n2CC(=O)N2CCC(C)CC2)no1 | inactive: 5.46%
40 | O=C(CCNC(=O)N1CCn2c1nc1ccccc12)NCc1ccc(Cl)cc1 | inactive: 5.88%
41 | Cc1nc2cc(C(F)(F)F)ccc2n1C1CCN(Cc2nnnn2CCc2ccccc2)CC1 | inactive: 6.84%
42 | CC(=O)Nc1ccc(Oc2c([N+](=O)[O-])cc([N+](=O)[O-])cc2[N+](=O)[O-])cc1 | inactive: -1.28%
43 | CC(C)(C)NC(=O)Cn1c(SCC(N)=O)nc2ccccc21 | inactive: -1.91%
44 | CC(C)CCNC(=O)CC1C(=O)N(Cc2ccccc2)C(C)c2nc3ccccc3n21 (stereo not given) | inactive: -3.83%
45 | O=C(Cn1c(NCCO)nc2ccccc21)Nc1ccc2c(c1)OCCCO2 | inactive: 4.27%
46 | N#Cc1cccc(NC(=O)Cn2c3[n+](c4ccc(C(F)(F)F)cc42)CCCCC3)c1 | inactive: 0.22%
47 | N=c1n(CCCOc2ccccc2Cl)c2ccccc2n1CC(N)=O | inactive: 5.03%
48 | Cc1ccc2c(c1)C1CN(C)CCC1N2C(=O)COc1ccc(N(C)C(=O)c2ccccc2)cc1 (stereo not given) | inactive: -1.25%
49 | C[C@H](NC(=O)N1CCn2c1nc1ccccc12)C(=O)NCc1ccccc1 | inactive: -0.17%
50 | CC1CN(C(=O)Cn2cnc3c2c(=O)n(C)c(=O)n3C)CC(C)O1 (stereo not given) | inactive: 2.74%
51 | COC(=O)c1ccc(CNC(=O)Cn2cnc3c(NCc4ccccc4)ncnc32)cc1 | inactive: -0.7%
52 | COc1cccc(CNC(=O)[C@H](CCSC)NC(=O)N2CCn3c2nc2ccccc23)c1 | inactive: 3.6%
53 | Cc1nc2ccccc2n1CC(=O)N1CC(=O)Nc2ccccc21 | inactive: 15.4%
54 | CCn1c(=O)c2c(nc3n2CCN3c2ccccc2)n(C)c1=O | inactive: 0.58%
55 | O=C(Cn1cnc2c(OCc3ccccc3)ncnc21)NCc1ccccc1 | inactive: -2.99%
